Measured values published in paper PMC5748751, “Study of Structure and Permeability Relationship of Flavonoids in Caco-2 Cells” (Nutrients, 2017).

Key:
[1] = Stability of flavonoids in D-Hank's buffer relative to methanol; assay type: physicochemical; details: 20 μM flavonoid, HPLC peak area in D-Hank's / peak area in methanol × 100%
[2] = test system: Caco-2 cell monolayer; assay: Cellular accumulation (CA) of flavonoids in Caco-2 cell monolayer; details: Caco-2 monolayer

Relative concentration of flavonoids, D-Hank's/methanol (%) [1]: 71.02%
Ratioc (ratio of CA B to A to CA A to B) [2]: 1.94
Compound: O=C1C[C@@H](c2ccc(O)cc2)Oc2cc(O)ccc21 [Compound 21, Liquiritigenin]
